According to publication PMC7215652, “An Affibody Molecule Is Actively Transported into the Cerebrospinal Fluid via Binding to the Transferrin Receptor” (International Journal of Molecular Sciences, 2020):

Molecular target: the molecule itself
Experiment: SDS-PAGE with and without DTT; DTT-treated and non-treated recombinant TfR compared on SDS-PAGE to assess its dimeric status

B1: recombinant his-tagged mouse TfR (extracellular domain of the mouse transferrin receptor) (receptor)
chain: not shown
notes: mouse transferrin receptor, recombinant extracellular domain that starts at Cys 89; also called mTfR; source: bought: Sino Biological Inc
B1: binds.
